Assay outcomes (PubChem)
In the library only some 16% were active in any assay of this set; here they are far more common.
TDP1 inh: TDP1 (human) enzyme inhibition | recombinant TDP1, AlphaScreen DNA substrate cleavage | Potency, µM (top dose mostly 130 µM), most hits filed as inhibitors | 0.28% of 350,000 active; further: nearly all actives have a fitted effect of over 40% in size
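Signal: AlphaScreen proximity between streptavidin donor and anti-FITC acceptor beads on intact substrate. Reaction: Tdp1 1 nM, substrate 15 nM final, 5 min RT after 15 min compound preincubation.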
DT40 TDP1 no CPT: qHTS for Inhibitors of human tyrosyl-DNA phosphodiesterase 1 (TDP1): qHTS in cells in absence of CPT. DT40 Tdp1-/- hTDP1 cells, no CPT, ATP luminescence, 48 h. Potency, µM (doses to about 46.2 µM), hits mostly inhibitors. 15% of 420,000 active. AID 686978, 2013; further: nearly all actives have a fitted effect of over 55% in size
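Compound effects on proliferation are scored in DT40 Tdp1-/-;hTDP1 cells in the absence of CPT. ATP levels (CellTiter-Glo luminescence) are recorded after a ≥48 hr, 37 °C incubation.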
miR-21 reporter: raises the signal of a miR-21 reporter | Potency, µM (highest dose often 38.3 µM) | HeLa miR-21 FLuc reporter, luciferase, 48 h | 340,000 tested, under 10 active; active = well fitted rising curve with a large enough effect; inconclusive = small, poorly fitted or top-dose-only effect; inactive = no such curve, though single readings can be large or run the other way;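 further: miR-21 action dims this reporter so a rising signal means less miR-21 action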
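Luminescence from a firefly luciferase reporter carrying a miR-21 binding site downstream, stably expressed under a CMV promoter in HeLa cells that make miR-21 endogenously, reports miRNA modulation after 48 h compound exposure up to approximately 40uM final.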
uPA generation: inhibitors of cell surface uPA generation; cell surface uPA generation assay, qHTS; Potency, µM (series often up to 38.3 µM), usual class: inhibitors; 0.31% of 330,000 active; AID 540303; active means well fitted inhibition curve with a large enough effect; inconclusive means small, poorly fitted or top-dose-only effect; inactive means no such curve, though single readings can be large or run the other way; tested in mouse RAW 264.7 cells; further: nearly all actives have a fitted effect of over 55% in size
TDP1 cell CPT: growth inhibition of DT40 Tdp1-/-;hTDP1 cells with camptothecin (screen for TDP1 inhibitors). chicken DT40 Tdp1-/-;hTDP1 cells + 20 nM CPT, ATP luminescence, 48 h. Potency, µM (top dose mostly 46.2 µM), usual class: inhibitors. 12% of 420,000 active. AID 686979; further: nearly all actives have a fitted effect of over 55% in size
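Chicken DT40 Tdp1-/- cells complemented with human TDP1, 400 cells/well, exposed to compounds plus 20 nM camptothecin for at least 48 h at 37 C; viability read as ATP content by CellTiter-Glo luminescence.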
Hits are given with their value; i = inactive; ? = inconclusive; nt = no result given. Unless noted, the call rests on the fitted dose curve; in most records, active means well fitted curve in the direction sought with a large enough effect; inconclusive means small, poorly fitted or top-dose-only effect, or another doubt; inactive means no such curve, though single readings can be large; an effect the other way counts as inactive or inconclusive.

SMILES | TDP1 inh | DT40 TDP1 no CPT | miR-21 reporter | uPA generation | TDP1 cell CPT
COc1ccc(C2=Nc3ccccc3N(C(=O)c3ccc(C(F)(F)F)cc3)C2C(=O)Nc2ccc3c(c2)OCCO3)cc1 (stereo unspecified) | nt | i | nt | nt | i
CCCCNC(=O)C1C(c2ccccc2)=Nc2ccccc2N1C(=O)c1ccc(C(F)(F)F)cc1 (stereo unspecified) | nt | 15µM | nt | nt | ?
N=c1ccn2c(n1)OCC1C2O[C@@H](O)[C@H]1O (stereo partly specified) | i | 0.15µM | nt | nt | 0.13µM
C=CCn1c(Cc2cccs2)nnc1SCC(=O)NC1CC1 | i | i | i | i | i
CN(C)CCN(C(=O)c1ccco1)c1nc2cc3c(cc2s1)OCCO3 | i | 3.7µM | i | ? | 4.6µM
CN(C)CCCN(C(=O)c1ccco1)c1nc2ccc(Br)cc2s1 | i | 23µM | i | i | 23µM
CCN(CC)CCN(C(=O)c1ccco1)c1nc2ccc(Cl)cc2s1 | i | ? | i | nt | ?
Cc1ccc2nc(N(CCCN(C)C)C(=O)c3sc4ccccc4c3Cl)sc2c1 | i | 26µM | i | i | 16µM
CN(C)CCCN(C(=O)c1ccco1)c1nc2ccc(Cl)cc2s1 | i | 16µM | i | i | 18µM
CN(C)CCCN(C(=O)c1ccc(C(=O)c2ccccc2)cc1)c1nc2cc3c(cc2s1)OCCO3 | i | i | i | i | i
Cc1ccnc(NC(=O)C2COc3ccccc3O2)c1 (stereo unspecified) | i | ? | i | i | i
CN(C)CCC(=O)c1ccc2c(c1)OCO2 | i | 3.7µM | i | i | 3.7µM
CCNC(=O)COC(=O)CCC(=O)c1ccc(F)cc1 | i | i | i | i | i
CCN(CC)CCC(=O)c1ccc(F)cc1 | i | 2.3µM | i | i | 2.9µM
CN1CCN(CCCC(=O)c2ccc(F)cc2)CC1 | i | i | i | i | i
CN(C)CCC(=O)c1ccc(F)cc1 | nt | 4.6µM | i | i | 5.2µM
Cc1ccc(C2CC(=O)C=C(O)C2)cc1 (stereo unspecified) | i | i | i | i | i
O=C1C=C(NCc2ccc3c(c2)OCO3)CC(c2ccccc2)C1 (stereo unspecified) | i | 18µM | i | i | ?
Cc1ccc(C2CC(=O)C=C(Nc3ccc(Cl)cc3)C2)cc1 (stereo unspecified) | i | ? | i | i | ?
Cc1ccc(C2CC(=O)C=C(NCc3ccccc3)C2)cc1 (stereo unspecified) | nt | 4.6µM | i | i | 5.2µM
COc1ccc(C2CC(=O)C=C(NCCC(C)C)C2)cc1 (stereo unspecified) | i | 15µM | i | i | ?
Cc1ccc(C2CC(=O)C=C(NCC(C)C)C2)cc1 (stereo unspecified) | i | 21µM | i | i | ?
CNC(=S)N(C)[C@H]1c2c(ccc3ccccc23)OC[C@H]1CO | i | ? | i | i | ?
O=S(=O)(NCCSc1ccc(Cl)cc1)c1ccc2c(c1)OCCO2 | i | i | i | i | i
Cc1cccc(/C=N/NC(=O)c2cc(C)nc3ccccc23)n1 | i | ? | i | ? | ?
SMILES | TDP1 inh | DT40 TDP1 no CPT | miR-21 reporter | uPA generation | TDP1 cell CPT
CCNC(=O)C(=O)N/N=C/c1cc([N+](=O)[O-])ccc1O | i | ? | i | i | 15µM
CCc1ccc(/C=N/NC(=O)c2cc(C3CC3)nc3ccccc23)s1 | i | 2.3µM | i | i | 4.6µM
Cc1cc(C(=O)N/N=C/c2ccc([N+](=O)[O-])cc2)c2ccccc2n1 | i | 3.3µM | ? | 2.8µM | 2.9µM
CCc1cc(C(=O)N/N=C/c2ccc(O)cc2)c2ccccc2n1 | i | 8.2µM | i | i | i
CC(C)(C)n1nnnc1C(c1cccnc1)N1CCOCC1 (stereo unspecified) | i | i | i | i | i
Nc1cc(=O)[nH]c(SCC(=O)Nc2cccc(S(=O)(=O)N3CCCCCC3)c2)n1 | i | i | nt | i | i
Cc1nn(C)c(C)c1S(=O)(=O)NCCc1ccc(Cl)cc1 | i | i | i | i | i
CCOCCCNC(=O)CN1CCN(c2ccc(F)cc2)CC1 | i | i | i | i | i
O=C(N/N=C/c1cc([N+](=O)[O-])ccc1O)c1c[nH]c2ccccc12 | i | ? | i | i | ?
O=C(NN=Cc1cc([N+](=O)[O-])ccc1O)c1cccc2ccccc12 | nt | 7.3µM | nt | i | 7.3µM
